Measurements as given in US20260248831A1, “NON-TUBERCULOSIS MYCOBACTERIA INFECTION TREATMENT” (AN2 Therapeutics, Inc., priority 2021, published 2026).

Tests used:
Experiment in all cases: Checkerboard antibacterial synergy testing of EBO pairwise combinations
Type in all cases: cell-based
Settings in all cases: in combination with EBO, Middlebrook 7H9+5% OADC
[1] = test system: M. intracellulare DNA000111
Description: (§1) Frozen stocks of the drugs were prepared at 5 or 2 mg/ml and frozen in aliquots at −20° C. On the day of the experiment the stocks were thawed and diluted to the appropriate concentration. Middlebrook 7H9 broth and agar, CA-MH agar and Middlebrook OADC were all purchased from Becton-Dickinson and Company (Sparks, MD).
(§2) M. avium 2285R (Verma et al. Microbiol (2019) 10: 693) and M intracellulare DNA000111 were obtained from Diane Ordway (Colorado State University, Fort Collins, CO). M. chimaera 20-S-05 and the macrolide/bedaquiline-resistant M. intracellulare 20-S-13 isolate were obtained from Barbara Brown-Elliott (Mycobacteria/Nocardia Research Laboratory, University of Texas Health Science Center, Tyler Tx). The strains M abscessus ATCC 19977, M. avium ATCC 700898 and M. peregrinum ATCC 700686 were obtained from the American Type Culture Collection (ATCC, Manassas, VA). Stocks of isolates were prepared and frozen at −80° C. Fresh cultures of each isolate (1-2 weeks) were grown on either 7H10 agar plus 5% OADC or CAMH agar plus 5% OADC for use in each experiment.
(§3) The checkerboard methodology was used to test for synergy and antagonism using Middlebrook 7H9+5% OADC (Dubos et al. Am Rev Tuberc (1947) 56:334-45) as the microbiology growth media. The first antibiotic of the combination, EBO, was serially diluted along the x-axis, whereas the second antibiotic was diluted along the y-axis. Synergistic or antagonistic activity was determined using the sum of the fractional inhibitory concentration (ΣFIC) index. The FTC index is calculated as the sum of FTC A+FTC B, where FTC A is the MIC of drug A in the combination of drugs A and B divided by the MIC of drug A alone, plus the MIC of drug B in the combination of drugs A and B divided by the MIC of drug B alone. A combination of drugs is considered synergistic when the FIC is ≤0.5, additive when the FTC is >0.5 to 1, indifferent when the FIC is >1 to 2, and antagonistic when the FTC is >2 (EUCAST. Clin. Microbiol. Infect. (2000) 6: 503-508).

M. chimaera 20-S-05 = test system: M. chimaera 20-S-05
Description: as §1, §2, §3

M. abscessus ATCC 19977 = test system: M. abscessus ATCC 19977
Description: as §1, §2, §3

M. avium ATCC 700898 = test system: M. avium ATCC 700898
Description: as §1, §2, §3

[2] = test system: M. peregrinum ATCC 700686
Description: as §1, §2, §3

SMILES	Summary Activity of EBO Drug Combinations (ΣFIC index class) [1]	Summary Activity of EBO Drug Combinations (ΣFIC index class) (M. chimaera 20-S-05)	Summary Activity of EBO Drug Combinations (ΣFIC index class) (M. abscessus ATCC 19977)	Summary Activity of EBO Drug Combinations (ΣFIC index class) (M. avium ATCC 700898)	Summary Activity of EBO Drug Combinations (ΣFIC index class) [2]
NCC[C@H](O)C(=O)N[C@@H]1C[C@H](N)[C@@H](O[C@H]2O[C@H](CN)[C@@H](O)[C@H](O)[C@H]2O)[C@H](O)[C@H]1O[C@H]1O[C@H](CO)[C@@H](O)[C@H](N)[C@H]1O [AMK, Amikacin]	I (I = Indifferent)	I (I = Indifferent)	I (I = Indifferent)	I (I = Indifferent)	A (A = Additive)
CC[C@H]1OC(=O)[C@H](C)[C@@H](O[C@H]2C[C@@](C)(OC)[C@@H](O)[C@H](C)O2)[C@H](C)[C@@H](O[C@@H]2O[C@H](C)C[C@H](N(C)C)[C@H]2O)[C@](C)(OC)C[C@@H](C)C(=O)[C@H](C)[C@@H](O)[C@]1(C)O [CLR, Clarithromycin]	I (I = Indifferent)	I (I = Indifferent)	I (I = Indifferent)	I (I = Indifferent)	I (I = Indifferent)
